Assay [1] deals with T1, GLP-1R (Homo sapiens, UniProt P43220). The assay is described as follows: GloSensor cAMP reporter assay. The format is cell-based. The note with it: read-out: cAMP Max Response (% GLP-1).
The target in assay [2] is T1, GLP-1R. Kind of assay: cell-based. The conditions noted are these: HEK293FT, read-out: β-Arrestin-2 Max Response (% GLP-1).
The target in assay [3] is T1, GLP-1R. The assay is described as follows: β-arrestin-1 recruitment BRET^2 assay. The note with it: HEK293FT, read-out: β-Arrestin-1 Max Response (% GLP-1). In general terms: Recruitment of arrestin is a read-out of receptor activation apart from second messengers.

Amino acid sequences for entries named in this document (tags omitted). Residues count along the entry.
UniProt P43220, 24-463: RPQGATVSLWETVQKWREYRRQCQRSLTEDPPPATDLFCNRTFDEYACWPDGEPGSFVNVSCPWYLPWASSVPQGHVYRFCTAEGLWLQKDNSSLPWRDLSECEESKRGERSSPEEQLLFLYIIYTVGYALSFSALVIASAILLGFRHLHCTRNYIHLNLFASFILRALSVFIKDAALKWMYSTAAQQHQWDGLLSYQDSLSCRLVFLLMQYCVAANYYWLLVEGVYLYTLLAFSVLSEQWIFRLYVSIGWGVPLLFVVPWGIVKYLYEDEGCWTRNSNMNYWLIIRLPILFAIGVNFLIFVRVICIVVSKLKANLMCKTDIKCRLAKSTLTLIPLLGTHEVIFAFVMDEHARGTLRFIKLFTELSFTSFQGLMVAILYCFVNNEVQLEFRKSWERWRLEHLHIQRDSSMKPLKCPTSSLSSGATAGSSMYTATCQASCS

Among the data in publication PMC5207657 (Journal of the American Chemical Society, 2016) are Emax values, retold here.

Structures are written as SMILES.

As for `CC[C@H](C)[C@H](NC(=O)[C@H](Cc1ccccc1)NC(=O)[C@H](CCC(=O)O)NC(=O)[C@H]1CNC[C@@H]1NC(=O)[C@H](C)NC(=O)[C@H](C)NC(=O)[C@H](CCC(N)=O)NC(=O)[C@H]1CCC[C@@H]1NC(=O)[C@H](CCC(=O)O)NC(=O)[C@H](CC(C)C)NC(=O)[C@H](Cc1ccc(O)cc1)NC(=O)[C@H](CO)NC(=O)[C@H](CO)NC(=O)[C@@H](NC(=O)[C@H](CC(=O)O)NC(=O)[C@H](CO)NC(=O)[C@@H](NC(=O)[C@H](Cc1ccccc1)NC(=O)[C@@H](NC(=O)CNC(=O)[C@H](CCC(=O)O)NC(=O)[C@H](C)NC(=O)[C@@H](N)Cc1c[nH]cn1)[C@@H](C)O)[C@@H](C)O)C(C)C)C(=O)N[C@@H](C)C(=O)N[C@@H](Cc1c[nH]c2ccccc12)C(=O)N[C@@H](CC(C)C)C(=O)N[C@H](C(=O)N[C@@H](CCCCN)C(=O)NCC(=O)N[C@@H](CCCNC(=N)N)C(=O)NCC(N)=O)C(C)C` [α/β-Peptide 12], the Emax on GLP-1R [1] worked out at 103 ± 1%; on GLP-1R [2] it was 78 ± 3%; at GLP-1R [3], 85 ± 3%.

On to `CC[C@H](C)[C@H](NC(=O)[C@H](Cc1ccccc1)NC(=O)[C@H](CCC(=O)O)NC(=O)[C@H](CCCCN)NC(=O)[C@H](C)NC(=O)[C@H](C)NC(=O)[C@H](CCC(N)=O)NC(=O)[C@H]1CCC[C@@H]1NC(=O)[C@H](CCC(=O)O)NC(=O)[C@H](CC(C)C)NC(=O)[C@H](Cc1ccc(O)cc1)NC(=O)[C@H]1CCC[C@@H]1NC(=O)[C@H](CO)NC(=O)[C@@H](NC(=O)[C@H](CC(=O)O)NC(=O)[C@H](CO)NC(=O)[C@@H](NC(=O)[C@H](Cc1ccccc1)NC(=O)[C@@H](NC(=O)CNC(=O)[C@H](CCC(=O)O)NC(=O)[C@H](C)NC(=O)[C@@H](N)Cc1c[nH]cn1)[C@@H](C)O)[C@@H](C)O)C(C)C)C(=O)N[C@@H](C)C(=O)N[C@@H](Cc1c[nH]c2ccccc12)C(=O)N[C@@H](CC(C)C)C(=O)N[C@H](C(=O)N[C@@H](CCCCN)C(=O)NCC(=O)N[C@@H](CCCNC(=N)N)C(=O)NCC(N)=O)C(C)C` [α/β-Peptide 11], for which the Emax came to 102 ± 1% at GLP-1R [1], 52 ± 4% on GLP-1R [2] and 37 ± 1% at GLP-1R [3].

For the molecule `CC[C@H](C)[C@H](NC(=O)[C@H](Cc1ccccc1)NC(=O)[C@H](CCC(=O)O)NC(=O)[C@H](CCCCN)NC(=O)[C@H](C)NC(=O)[C@H](C)NC(=O)[C@H](CCC(N)=O)NC(=O)CNC(=O)[C@H](CCC(=O)O)NC(=O)[C@H](CC(C)C)NC(=O)[C@H](Cc1ccc(O)cc1)NC(=O)[C@H]1CCC[C@@H]1NC(=O)[C@H](CO)NC(=O)C(C)(C)NC(=O)[C@H](CC(=O)O)NC(=O)[C@H](CO)NC(=O)[C@@H](NC(=O)[C@H](Cc1ccccc1)NC(=O)[C@@H](NC(=O)CNC(=O)[C@H](CCC(=O)O)NC(=O)[C@H](C)NC(=O)[C@@H](N)Cc1c[nH]cn1)[C@@H](C)O)[C@@H](C)O)C(=O)N[C@@H](C)C(=O)N[C@@H](Cc1c[nH]c2ccccc12)C(=O)N[C@@H](CC(C)C)C(=O)N[C@H](C(=O)N[C@@H](CCCCN)C(=O)NCC(=O)N[C@@H](CCCNC(=N)N)C(=O)NCC(N)=O)C(C)C` [α/β-Peptide 10], the values for the Emax at GLP-1R [1], at GLP-1R [2] and at GLP-1R [3] were 100 ± 1%, 53 ± 5% and 30 ± 1%, respectively.
